For one compound, Bottom, HillSlope and Top results are on record in paper PMC7782793, “Hydroxamic acid-modified peptide microarrays for profiling isozyme-selective interactions and inhibition of histone deacetylases” (Nature Communications, 2021).

Chains of the proteins cited; added tags and fusions are not shown. Residues count along the entry.
UniProt Q13547, whole entry: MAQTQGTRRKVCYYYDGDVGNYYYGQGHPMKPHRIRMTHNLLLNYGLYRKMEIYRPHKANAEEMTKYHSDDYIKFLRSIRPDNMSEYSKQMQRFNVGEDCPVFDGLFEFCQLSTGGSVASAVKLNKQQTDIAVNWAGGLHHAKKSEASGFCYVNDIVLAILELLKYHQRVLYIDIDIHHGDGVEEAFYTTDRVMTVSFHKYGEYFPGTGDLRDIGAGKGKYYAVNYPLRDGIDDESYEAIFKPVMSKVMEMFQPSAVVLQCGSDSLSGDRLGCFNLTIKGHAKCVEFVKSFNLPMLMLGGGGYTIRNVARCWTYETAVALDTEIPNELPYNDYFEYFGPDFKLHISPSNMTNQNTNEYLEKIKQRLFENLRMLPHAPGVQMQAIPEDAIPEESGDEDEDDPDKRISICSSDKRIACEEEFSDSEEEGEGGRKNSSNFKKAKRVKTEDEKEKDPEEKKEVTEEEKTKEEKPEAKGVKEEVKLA
UniProt Q92769, whole entry: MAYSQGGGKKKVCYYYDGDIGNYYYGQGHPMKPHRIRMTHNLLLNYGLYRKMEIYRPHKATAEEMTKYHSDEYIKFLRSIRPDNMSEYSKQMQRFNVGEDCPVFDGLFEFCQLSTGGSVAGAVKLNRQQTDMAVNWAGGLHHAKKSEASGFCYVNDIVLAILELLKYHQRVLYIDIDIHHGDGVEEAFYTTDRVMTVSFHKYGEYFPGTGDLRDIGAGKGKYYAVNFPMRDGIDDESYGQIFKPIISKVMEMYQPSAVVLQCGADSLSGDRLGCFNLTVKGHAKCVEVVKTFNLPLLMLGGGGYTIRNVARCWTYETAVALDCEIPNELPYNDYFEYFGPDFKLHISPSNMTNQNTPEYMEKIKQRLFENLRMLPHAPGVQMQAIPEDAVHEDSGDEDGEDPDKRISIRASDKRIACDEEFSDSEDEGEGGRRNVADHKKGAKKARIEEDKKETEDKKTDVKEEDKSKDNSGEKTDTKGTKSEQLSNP
UniProt O15379, whole entry: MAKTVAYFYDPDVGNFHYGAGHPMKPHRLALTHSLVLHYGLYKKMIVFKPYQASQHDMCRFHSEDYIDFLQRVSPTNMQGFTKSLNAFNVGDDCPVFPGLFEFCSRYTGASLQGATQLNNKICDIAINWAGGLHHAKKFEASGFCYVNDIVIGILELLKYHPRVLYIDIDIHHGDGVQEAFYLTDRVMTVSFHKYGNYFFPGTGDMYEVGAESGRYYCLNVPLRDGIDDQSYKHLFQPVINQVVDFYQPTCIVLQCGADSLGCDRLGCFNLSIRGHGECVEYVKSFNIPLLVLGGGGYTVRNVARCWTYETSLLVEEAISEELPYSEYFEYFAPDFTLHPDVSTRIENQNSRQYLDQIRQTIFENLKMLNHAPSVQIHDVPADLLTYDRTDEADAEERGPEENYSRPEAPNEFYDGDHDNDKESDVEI
UniProt Q9BY41, whole entry: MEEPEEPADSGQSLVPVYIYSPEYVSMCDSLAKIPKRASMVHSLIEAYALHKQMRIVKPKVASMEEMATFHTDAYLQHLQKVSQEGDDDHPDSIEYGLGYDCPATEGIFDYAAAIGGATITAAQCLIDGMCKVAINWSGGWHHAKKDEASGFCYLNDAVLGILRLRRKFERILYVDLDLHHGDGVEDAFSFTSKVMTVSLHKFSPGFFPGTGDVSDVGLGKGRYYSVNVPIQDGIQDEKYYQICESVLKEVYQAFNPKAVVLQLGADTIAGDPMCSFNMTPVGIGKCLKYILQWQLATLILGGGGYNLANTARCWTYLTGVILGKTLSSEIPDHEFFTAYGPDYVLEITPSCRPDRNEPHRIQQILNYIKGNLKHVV
UniProt Q9Y618, 389-480 partner limits assumed: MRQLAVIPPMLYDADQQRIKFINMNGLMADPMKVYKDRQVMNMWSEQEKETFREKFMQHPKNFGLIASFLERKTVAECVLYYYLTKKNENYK

Holding throughout (assay): Recombinant HDAC µSPOT microarray binding assay
One assay addresses HDAC1 (Homo sapiens, UniProt Q13547). The conditions noted are these: dose-response fit parameter, H4 K12X (X = Asuha) peptides.
The next assay has as its target HDAC2 (Homo sapiens, UniProt Q92769). The following applies: dose-response fit parameter, H4 K12X (X = Asuha) peptides.
Another assay has as its target HDAC3/NCoR2 (Homo sapiens, UniProt O15379). The following applies: dose-response fit parameter, H4 K12X (X = Asuha) peptides.
The next assay concerns the target HDAC8 (Homo sapiens, UniProt Q9BY41). The conditions noted are these: dose-response fit parameter, µSPOT microarray, H4 K12X (X = Asuha) peptides, HDAC8.
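For Bottom in this document: relative spot intensity from the six enzyme-concentration slides imaged together.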
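For Top in this document: relative spot intensity from the six enzyme-concentration slides imaged together.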

Take `CC(C)C[C@H](N)C(=O)NCC(=O)N[C@@H](CCCCCC(=O)NO)C(=O)NCC(=O)NCC(=O)N[C@@H](C)C(=O)N[C@@H](CCCCN)C(=O)N[C@@H](CCCNC(=N)N)C(=O)N[C@@H](Cc1cnc[nH]1)C(=O)N[C@@H](CCCNC(=N)N)C(=O)O`: the Bottom on HDAC1 is 0.1; on HDAC2, -0.16; on HDAC3/NCoR2, 0.07; on HDAC8, 0.23. Also, the HillSlope at HDAC1 amounted to 1.97; on HDAC2, 0.14; on HDAC3/NCoR2, 2; at HDAC8, 2. In addition, the Top was 0.93 on HDAC1, 194.96 at HDAC2 and 0.75 at HDAC8.
